Laboratory results: patent US20260325464A1, “COMPOSITIONS FOR MODULATING THE EXPRESSION OF AQUAPORINS IN NEURODEGENERATIVE DISORDERS” (priority 2023, published 2026)

Experiments:
substantia nigra = experiment: Brain histopathology of substantia nigra, reserpine Parkinson's model; assay type: in vivo, rat; details: 25 mg/kg, p.o., FIG. 15
From the text: The brain histopathology was done for all the experimental groups. The brain tissue was fixed in 10% buffered neutral formalin solution. The tissue was embedded in paraffin, sectioned at […] stained with hematoxylin and eosin (H&E). The sections were examined under light microscope to study the architecture of the brain tissue, and then photomicrographs were taken (Fischer A H, Jacobson K A, Rose J, Zeller R. Hematoxylin and eosin staining of tissue and cell sections. CSH Protoc. 2008:1;pdb.prot4986. doi: 10.1101/pdb.prot4986).
(§1) The induction of Parkinson's disease and measurement of other parameters were done as per the reported protocol (Santos et al., Cognitive, motor and tyrosine hydroxylase temporal impairment in a model of parkinsonism induced by reserpine. Behav Brain Res. 2013; 253:68-77 and Shishehbore et al. A novel kinetic spectrophotometric method for the determination of dopamine in biological and pharmaceutical samples. J Chem. 2013; 2013:1-6). Induction of Parkinson's disease was done by administering Resperine, which inhibits the monoamine vesicular transporters, thus decreasing the levels of monoamine neurotransmitters in the brain. Following pretreatment for 14 days with Gingerenone A, the rat groups received subcutaneous injections of reserpine (4 mg/kg) for the final five days of the treatment regimen. […]

Dopamine = Dopamine in brain (kinetic spectrophotometric), reserpine Parkinson's model; assay type: in vivo, rat; details: 25 mg/kg, p.o. + Reserpine (4 mg/kg, s.c.), Mean ± SEM, n = 6
From the text: as §1, with “regimen. Resperine (5 mg) was dissolved in 1 ml of 1% acetic acid and then diluted tenfold with distilled water to achieve a final concentration of 500 μg/ml.” for “regimen.”
Dopamine—Studies have shown that symptoms of Parkinson's develop in patients with an 80 percent or greater loss of dopamine-producing cells in the substantia nigra. […] The change in absorbance was recorded spectrophotometrically at 601 nm (Shishehbore et al., Novel Kinetic Spectrophotometric Method for the Determination of Dopamine in Biological and Pharmaceutical Samples. 2013. Article ID 819460, https://doi.org/10.1155/2013/819460).

Structure (SMILES): C[C@@](Cc1ccc(O)c(O)c1)(NN)C(=O)O [Carbidopa, reference compound]
- histopathology of substantia nigra (substantia nigra): both normal [FIG. 15A—Arrow] and degenerative neuronal cells having dark nucleus with mild basophilic cytoplasm [FIG. 15B—Arrow]. Mild inflammation noted at places and the neuropils had focal vacuoles
- Dopamine (Dopamine): 0.148 ± 0.037 µg/mL
